In the data set the test system is β2m. Description: Thermal stability by nanoscale differential scanning fluorimetry, β2m. The arrangement: species or system human. The conditions noted are these: no reagent; β2m alone, citrate-phosphate buffer pH 7.6, 1.0 °C/min. For orientation: DSF heats the sample and reads unfolding from a dye or from intrinsic fluorescence.

This passage reports Tm results from publication PMC9420430 (Current Research in Immunology, 2022).

One may read the Tm as the temperature at which the thermal transition is half complete. β2m: (human) beta-2 microglobulin: the melting temperature (Tm) was found to be 65.5 °C.
